Source: ChEMBL document CHEMBL1177720, “Selective hexapeptide agonists and antagonists for human complement C3a receptor” (J Med Chem, 2010)

Legend:
[1] = biological target: T1, C5a anaphylatoxin chemotactic receptor 1 (Homo sapiens, UniProt P21730); test: Displacement of [125I-C5a] from C5a receptor in human PBMC by scintillation counting
T1 sequence (P21730 whole entry): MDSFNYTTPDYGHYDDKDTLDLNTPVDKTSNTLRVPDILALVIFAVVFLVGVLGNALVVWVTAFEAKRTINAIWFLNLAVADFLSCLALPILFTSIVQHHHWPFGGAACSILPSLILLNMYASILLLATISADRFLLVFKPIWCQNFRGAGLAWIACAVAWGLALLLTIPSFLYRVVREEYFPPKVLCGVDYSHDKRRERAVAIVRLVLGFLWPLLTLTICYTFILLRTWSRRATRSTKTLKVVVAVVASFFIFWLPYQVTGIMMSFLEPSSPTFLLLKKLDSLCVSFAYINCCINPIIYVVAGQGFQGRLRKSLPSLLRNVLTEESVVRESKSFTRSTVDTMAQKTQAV

[2] = biological target: T2, C3a anaphylatoxin chemotactic receptor (Homo sapiens, UniProt Q16581); test: Displacement of [125I-C3a] from C3a receptor in human PBMC by scintillation counting
T2 sequence (Q16581 whole entry): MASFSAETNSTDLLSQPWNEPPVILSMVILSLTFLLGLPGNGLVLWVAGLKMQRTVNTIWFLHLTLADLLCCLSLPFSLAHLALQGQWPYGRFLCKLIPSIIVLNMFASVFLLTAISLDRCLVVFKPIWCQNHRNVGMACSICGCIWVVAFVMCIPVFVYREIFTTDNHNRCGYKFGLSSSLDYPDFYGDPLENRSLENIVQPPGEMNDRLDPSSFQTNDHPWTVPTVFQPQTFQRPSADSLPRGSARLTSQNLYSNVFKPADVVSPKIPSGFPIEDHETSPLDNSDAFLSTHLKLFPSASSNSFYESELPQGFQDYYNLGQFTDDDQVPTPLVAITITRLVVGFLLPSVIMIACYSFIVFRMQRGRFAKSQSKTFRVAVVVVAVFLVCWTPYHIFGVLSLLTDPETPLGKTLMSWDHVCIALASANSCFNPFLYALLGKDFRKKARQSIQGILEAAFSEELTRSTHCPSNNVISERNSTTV

CSCC[C@H](NC(=O)[C@@H]1CCCN1C(=O)[C@H](CCCCN)NC(=O)[C@H](Cc1ccccc1)NC(=O)[C@H](CO)NC(=O)[C@@H](N)Cc1ccc(O)cc1)C(=O)N1CCC[C@H]1C(=O)N[C@@H](CC(C)C)C(=O)N[C@H](C)C(=O)N[C@@H](CCCN=C(N)N)C(=O)O
IC50 [1]: 4700 nM | IC50 [2]: 140 nM
